In paper PMC4885489, “Prediction of Drug-Drug Interactions Arising from CYP3A induction Using a Physiologically Based Dynamic Model” (Drug Metabolism and Disposition, 2016):
Where two headings read alike, the source gives them in different places. Only a part of the results on these compounds is given; other tests are left out.

Columns and labels:
[1] = Gut parameters (Qgut, fugut), simulation input; set-up: species or system human; conditions: Optimised to recover observed FG (Kharasch and Stubbert, 2013 and others)
CYP3A4 = conditions: cited from earlier work; for AUC: before rifampicin, mean (CV)
[2] = ref Meta-analysis (Meuldermans et al., 1982); (Bower and Hull, 1982) and 5 others; cited from earlier work
[3] = ref (Meuldermans et al., 1982) (Beaumont et al., 2011); cited from earlier work
[4] = ref (Mather, 1983); cited from earlier work
[5] = Monoprotic Base; ref (Meuldermans et al., 1982); (Mather, 1983); cited from earlier work
[6] = ref Meta-analysis (Bower and Hull, 1982); (Bentley et al., 1983) and others; cited from earlier work
[7] = cited from earlier work

CCC(=O)N(c1ccccc1)C1(COC)CCN(CCn2nnn(CC)c2=O)CC1
Qgut [1]: 2.2 L/h
AUC (CYP3A4; ALF 0.015 mg/kg i.v., n=6, ref Phimmasone and Kharasch, 2001): 111 (52.1) ng/mL.h
AUC (CYP3A4; ALF 0.015 mg/kg i.v., n=10, ref Kharasch et al., 2004): 64.8 (41.0) ng/mL.h
1/AUC Ratio (CYP3A4; ALF 0.015 mg/kg i.v., rifampicin 600 mg daily for 5 days, ref Kharasch et al., 2004): 2.67
1/AUC Ratio (CYP3A4; ALF 0.015 mg/kg i.v., rifampicin 600 mg daily for 5 days, ref Phimmasone and Kharasch, 2001): 2.31
AUC (CYP3A4; ALF 0.06 mg/kg oral, n=10, ref Kharasch et al., 2004): 103 (29.1) ng/mL.h
1/AUC Ratio (CYP3A4; ALF 0.06 mg/kg oral, rifampicin 600 mg daily for 6 days, ref Kharasch et al., 2004): 21.9
AUC (CYP3A4; ALF 1 mg i.v., n=6, ref Kharasch et al., 2011): 59.0 (45.8) ng/mL.h
1/AUC Ratio (CYP3A4; ALF 1 mg i.v., rifampicin 600 mg daily for 6 days, ref Kharasch et al., 2011): 2.81
AUC (CYP3A4; ALF 4 mg oral, n=6, ref Kharasch et al., 2011): 108 (63.0) ng/mL.h
1/AUC Ratio (CYP3A4; ALF 4 mg oral, rifampicin 600 mg daily for 5 days, ref Kharasch et al., 2011): 16.9
fraction unbound [2]: 0.12
B:P [3]: 0.66
logP [4]: 2.16
pKa(s) [5]: 6.5
Vss - observed [6]: 0.371 L/kg
CLiv ([7]; ref Meta-analysis (Bovill et al., 1982), (Bower and Hull, 1982) and others): 19.9 L/h
CLR ([7]; ref Meta-analysis (Meuldermans et al., 1988), (Schuttler and Stoeckel, 1982)): 0.06 L/h
